Test results published in patent publication US20030181390A1, “Amino acid conjugates providing for sustained systemic concentrations of GABA analogues” (priority 2002, published 2003).

Details: rat, single oral dose of prodrug, 25 mg-equivalents of gabapentin per kg
Experimental: The pharmacokinetics of the prodrugs prepared in Examples 1 and 3 were examined in rats. […] Animals were fasted overnight prior to dosing and until 4 hours post-dosing. Serial blood samples were obtained over 24 hours following dosing and blood was processed for plasma by centrifugation. Plasma samples were stored at −80° C. until analyzed.
Plasma (50 μL) was precipitated by addition of […] of methanol and supernatant was injected directly onto the LC/MS/MS system. […] Following oral administration of gabapentin prodrugs, concentrations of prodrug and gabapentin in plasma were monitored over 24 hours.

L-Tyrosine-(O-2-Bromobenzyloxycarbonyl)-Gabapentin [4d]
Cmax for prodrug (Cmax PD) in plasma: < 4 ng/mL
